Patent US20150065436A1, “INHIBITING INTERACTION BETWEEN HIF-1ALPHA AND p300/CBP WITH HYDROGEN BOND SURROGATE-BASED HELICES” (UNIVERSITY OF SOUTHERN CALIFORNIA, priority 2013, published 2015)

Amino acid sequences for entries named in this document (tags omitted). Residues count along the entry.
UniProt Q09472, 323-423: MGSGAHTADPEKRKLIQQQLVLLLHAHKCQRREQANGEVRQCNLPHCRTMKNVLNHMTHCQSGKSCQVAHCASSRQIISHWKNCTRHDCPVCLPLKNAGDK

Molecular target: T1, p300-CH1 (Homo sapiens, UniProt Q09472)
T1 construct: human p300 CH1 domain (amino acid residues 323-423); GST (cleaved yes); made in house; host or cells: E. coli BL21 (DE3)
Test: Binding of HIF-1α C-TAD786-826 to purified p300-CH1 samples expressed at varying Zn2+ levels
Conditions: p300-CH1 samples from growth media with slightly changed Zn2+ concentrations; read-out: Kd of different purified protein samples
Excerpt: The CH1 domain of p300/CBP is stabilized by three zinc ions. Prior NMR structural studies have shown that the purified protein can rapidly aggregate in a buffer with excess or deficiency in Zn^2+ (Patgiri et al., “A Hydrogen Bond Surrogate Approach for Stabilization of Short Peptide Sequences in Alpha-Helical Conformation,” Acc. Chem. Res. 41(10):1289-300 (2008), which is hereby incorporated by reference in its entirety). […] The difficulty in working with this protein is directly correlated with its expression protocol, and slight changes in the concentrations of Zn^2+ in the bacterial growth media, supplemented with ZnSO4, could lead to purified protein samples that bind with different binding affinities (Kd˜30 nM-2 μM) to HIF-1αC-TAD786-826. To overcome this variability, ^15N labeled protein was prepared and peak dispersion (and protein folding) was monitored by ^1H-^15N HSQC NMR experiments (FIGS. 8A-D).

Kd: 30 to 2000 nM
Compound: CC[C@H](C)[C@H](NC(=O)[C@@H]1CCCN1C(=O)[C@H](C)NC(=O)[C@H](CC(N)=O)NC(=O)[C@@H](NC(=O)[C@H](CCC(=O)O)NC(=O)[C@H](CS)NC(=O)[C@H](CC(=O)O)NC(=O)[C@H](Cc1ccc(O)cc1)NC(=O)[C@H](CO)NC(=O)[C@@H](NC(=O)[C@H](CC(C)C)NC(=O)[C@H](CCC(N)=O)NC(=O)[C@@H]1CCCN1C(=O)[C@H](CC(C)C)NC(=O)CNC(=O)[C@H](CO)NC(=O)[C@H](CCC(=O)O)NC(=O)[C@H](CC(=O)O)NC(=O)[C@H](CCSC)NC(=O)[C@@H](N)CO)[C@@H](C)O)C(C)C)C(=O)N[C@@H](CCC(N)=O)C(=O)NCC(=O)N[C@@H](CO)C(=O)N[C@@H](CCCNC(=N)N)C(=O)N[C@@H](CC(N)=O)C(=O)N[C@@H](CC(C)C)C(=O)N[C@@H](CC(C)C)C(=O)N[C@@H](CCC(N)=O)C(=O)NCC(=O)N[C@@H](CCC(=O)O)C(=O)N[C@@H](CCC(=O)O)C(=O)N[C@@H](CC(C)C)C(=O)N[C@@H](CC(C)C)C(=O)N[C@@H](CCCNC(=N)N)C(=O)N[C@@H](C)C(=O)N[C@@H](CC(C)C)C(=O)N[C@@H](CC(=O)O)C(=O)N[C@@H](CCC(N)=O)C(=O)N[C@H](C(=O)N[C@@H](CC(N)=O)C(=O)O)C(C)C [HIF-1αC-TAD786-826]
